Measured values taken from ChEMBL document CHEMBL5113442, “Discovery of agonist-antagonist pairs for the modulation of Ca [2]+ and voltage-gated K+ channels of large conductance that contain beta1 subunits” (Bioorg Med Chem, 2022).

Test system: CHO
Assay: Agonist activity at rat BK calcium channel alphabeta1 expressed in CHO cells assessed as fold increase in current amplitude at 0.0001 to 33.3 uM by automated whole cell patch clamp analysis
Type: cell-based
Details: filed as agonist, dose 0.0001-33.3 µM

Compared with C/C(=C/C(=O)C[C@H](C)C(=O)O)[C@@H]1CC(=O)[C@@]2(C)C3=C(C(=O)C[C@]12C)[C@@]1(C)CCC(=O)C(C)(C)[C@@H]1C[C@@H]3O, CC[C@@H](C)NS(=O)(=O)c1cc([N+](=O)[O-])ccc1Oc1c(C)c(C(=O)NC[C@@H]2CCCO2)nn1-c1cccc(C)c1C is lower in fold change (FC): 8.04 for the first, 4.56 for the second.

Going from O=C1NC(=O)N(c2ccc(F)cc2)C(=O)/C1=C/c1cc(Br)ccc1OCc1cccc([N+](=O)[O-])c1 to O=C(Nc1ccc(F)cc1)c1nnc(/C(Cl)=C\c2cccc([N+](=O)[O-])c2)s1, the fold change (FC) falls from 10.3 to 6.83.
